# Measurements: patent US20210057047A1, “IN-SILICO METHOD FOR DESIGNING A (D)-POLYPEPTIDE LIGAND” (THE GOVERNING COUNCIL OF THE UNIVERSITY OF TORONTO, priority 2018, published 2021)
# Chains of the proteins cited; added tags and fusions are not shown. Residues count along the entry.
# UniProt P06873, 106-384: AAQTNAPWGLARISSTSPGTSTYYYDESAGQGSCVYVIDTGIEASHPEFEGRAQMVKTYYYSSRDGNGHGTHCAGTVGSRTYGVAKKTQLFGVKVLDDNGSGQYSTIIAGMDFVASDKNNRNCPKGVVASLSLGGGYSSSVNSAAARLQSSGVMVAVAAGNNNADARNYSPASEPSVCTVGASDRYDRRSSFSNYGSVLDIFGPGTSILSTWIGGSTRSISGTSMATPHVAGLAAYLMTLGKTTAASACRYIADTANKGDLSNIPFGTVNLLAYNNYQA
# Target: T1, Proteinase K (ProtK) (Parengyodontium album, UniProt P06873)
# T1 construct: purchased Bioshop
# Format: in vitro ADME
# Protocol: Stocks of 20 μM peptide in 200 μL total volume (10 mM Tris-base, 10 mM NaCl, pH 7.4) were supplemented with 5 μM CaCl2) and 30 uL removed for the untreated T0 sample. Proteinase K (ProtK, Bioshop) was then added to a final concentration of 100 μg/mL. Samples were incubated at 37° C. and 30 μL removed after each time point and protease activity blocked by the addition of 10 mM PMSF (200 mM stock dissolved in isopropanol). Protease inactivated samples were frozen at −20° C. until further use. Digestions were repeated three times. Frozen samples were supplemented with 8 μL sample loading buffer (4× NuPAGE, ThermoFisher Scientific), boiled ([…]) for 10 minutes, and centrifuged (12 000 rpm, 10 min) prior to loading the gel (12% NuPAGE Bis-Tris (ThermoFisher Scientific) with MES running buffer). Gels were run at 200 V for […] and stained using Coomassie Brilliant Blue dye. Densitometry of bands was determined using ImageJ software (40) with back ground subtraction. All samples were normalized to their respective untreated sample (T0).
smiles,measurement,setting,value
CC[C@H](C)[C@H](NC(=O)[C@H](Cc1ccccc1)NC(=O)[C@H](CCC(=O)O)NC(=O)[C@H](CCCCN)NC(=O)[C@H](C)NC(=O)[C@H](C)NC(=O)[C@H](CCC(N)=O)NC(=O)CNC(=O)[C@H](CCC(=O)O)NC(=O)[C@H](CC(C)C)NC(=O)[C@H](Cc1ccc(O)cc1)NC(=O)[C@H](CO)NC(=O)[C@H](CO)NC(=O)[C@@H](NC(=O)[C@H](CC(=O)O)NC(=O)[C@H](CO)NC(=O)[C@@H](NC(=O)[C@H](Cc1ccccc1)NC(=O)[C@@H](NC(=O)CNC(=O)[C@H](CCC(=O)O)NC(=O)[C@H](C)NC(=O)[C@@H](N)Cc1cnc[nH]1)[C@@H](C)O)[C@@H](C)O)C(C)C)C(=O)N[C@@H](C)C(=O)N[C@@H](Cc1c[nH]c2ccccc12)C(=O)N[C@@H](CC(C)C)C(=O)N[C@H](C(=O)N[C@@H](CCCCN)C(=O)NCC(=O)N[C@@H](CCCNC(=N)N)C(=O)O)C(C)C [(L)-GLP1],time to total loss of peptide,"exposure to ProtK, 37° C.",< 1 h
same,degradation by ProtK (in words),treatment with ProtK over 5 hours,rapid degradation
